This passage reports IC50 results from patent US7105679B2, “Heteroatom containing tetracyclic derivatives as selective estrogen receptor modulators” (priority 2001, dated 2006).

The chains behind the UniProt entries cited, without tags or fusion partners.
UniProt P03372, whole entry: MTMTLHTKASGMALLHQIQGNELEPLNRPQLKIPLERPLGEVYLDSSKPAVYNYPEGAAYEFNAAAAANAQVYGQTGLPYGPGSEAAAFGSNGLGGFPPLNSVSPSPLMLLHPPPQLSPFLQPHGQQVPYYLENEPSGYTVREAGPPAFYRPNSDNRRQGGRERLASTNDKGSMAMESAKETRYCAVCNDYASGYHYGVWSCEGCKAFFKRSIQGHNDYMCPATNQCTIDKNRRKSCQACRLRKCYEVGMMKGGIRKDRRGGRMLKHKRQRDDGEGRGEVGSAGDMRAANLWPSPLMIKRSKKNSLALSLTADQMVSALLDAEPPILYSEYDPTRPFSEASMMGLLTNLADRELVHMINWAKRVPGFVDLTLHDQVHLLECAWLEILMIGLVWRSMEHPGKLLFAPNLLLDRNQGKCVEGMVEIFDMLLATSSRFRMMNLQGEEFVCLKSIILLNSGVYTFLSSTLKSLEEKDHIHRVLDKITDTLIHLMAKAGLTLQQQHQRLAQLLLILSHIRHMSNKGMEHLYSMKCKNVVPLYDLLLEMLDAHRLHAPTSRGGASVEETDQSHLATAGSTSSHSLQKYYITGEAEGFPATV

In test [1] the target is human estrogen receptor α (Homo sapiens, UniProt P03372). As to the kind of experiment: Estrogen Receptor α Flash Plate Assay (binding of radiolabeled estrogen). As to conditions: read-out: Estrogen Receptor α in μM (No.), 0.5 nM radiolabeled estrogen, number in brackets = No. of determinations, NA = no detected activity at test concentration.
In test [2] the test system is Ishikawa cells. As to the kind of experiment: Alkaline Phosphatase Assay in Human Endometrial Ishikawa Cells (agonist and antagonist mode). As to conditions: read-out: Antagonist (No.), antagonist mode with 10 nM 17β-estradiol, number in brackets = number of tests, NA = no detected activity at test concentration.
For test [3], the system named is MCF-7 cells. As to the kind of experiment: MCF-7 Cell Proliferation Assay (14C-thymidine, agonist and antagonist mode). It is filed as cell-based. As to conditions: read-out: Antagonist (No.), antagonist mode with 10 nM 17β-estradiol, number in brackets = number of tests, NA = no detected activity at test concentration.

For `Oc1ccc2c(c1)OC(c1ccc(OCCN3CCCCC3)cc1)C1=C2CCCOc2cc(O)ccc21` (single isomer, unassigned) [125], the IC50 in test [1] is 0.079 µM.
For the compound `Oc1ccc2c(c1)OC(c1ccc(OCCN3CCCCC3)cc1)C1=C2CCCOc2cc(O)ccc21` (single isomer, unassigned) [126], the IC50 in test [1] came out at 0.0042 µM.
On the same count and under the same terms, in the case of `CN(C)CCOc1ccc(C2Oc3cc(O)ccc3C3=C2c2ccc(O)cc2OCC3)cc1` (single isomer, unassigned) [163] it was 0.013 µM.
The same measure, in the same setting: under `CN(C)CCOc1ccc(C2Oc3cc(O)ccc3C3=C2c2ccc(O)cc2OCC3)cc1` (single isomer, unassigned) [164] stands 0.0028 µM.
On to `COc1ccc2c(c1)OC(c1ccc(OCCN3CCCCC3)cc1)C1=C2CCOc2cc(O)ccc21` (single isomer, unassigned) [Compound 302, 8-Methoxy-5R*-(+)-[4-(2-piperidin-1-yl-ethoxy)-phenyl]-11,12-dihydro-5H-6,13-dioxa-benzo[3,4]cyclohepta[1,2-a]naphthalen-2-ol], for which the IC50 in test [1] is 0.125 µM; in test [2], 739 nM; in test [3] it was more than 1000 nM.
